Earlier results, collected in patent publication US20090196930A1, “AEROSOLIZED NITRITE AND NITRIC OXIDE -DONATING COMPOUNDS AND USES THEREOF” (Aires Pharmaceuticals, Inc., priority 2007, published 2009).

Settings: NAL MDI, 2 mg per puff, healthy volunteers; cited from earlier work

## L-lysine-N-acetylcysteinate [NAL]
  fraction of dose able to reach the lungs: approximately 10%
